How the values were obtained:
[1] = biological target: UGT1A4 24Pro/48Leu (wild-type) (Homo sapiens, UniProt P22310); assay: in vitro; conditions: human, pH 7.5, KM, UGT1A4^24Pro/48Leu
[2] = biological target: UGT1A4^24Pro/48Leu (Homo sapiens, UniProt P22310); assay: in vitro; conditions: wild-type UGT 1A4-over-expressing HEK293 cell homogenate; 50 uM OLZ
[3] = biological target: UGT1A4 24Thr/48Leu (Homo sapiens, UniProt P22310, P24T); assay: in vitro; conditions: for Km at 2 h: human, pH 7.5, KM
[4] = biological target: UGT1A4 24Pro/48Val (Homo sapiens, UniProt P22310, L48V); assay: in vitro; conditions: for Km at 2 h: human, pH 7.5, KM
[5] = biological target: UGT2B10 67Asp (wild-type) (Homo sapiens, UniProt P36537); assay: in vitro; conditions: human, pH 7.5, KM, UGT2B10^67Asp
[6] = biological target: UGT2B10^67Asp (Homo sapiens, UniProt P36537); assay: in vitro; conditions: wild-type UGT 2B10-over-expressing HEK293 cell homogenate; 50 uM OLZ
[7] = biological target: UGT2B10^67Tyr (Homo sapiens, UniProt P36537, D67Y)
[8] = subjects taking OLZ; urine; cited from earlier work
[9] = OLZ-10-N-glucuronide isomer 1 formation
[10] = OLZ-10-N-glucuronide isomer 2 formation

Amino acid sequences for entries named in this document (tags omitted). Residues count along the entry.
UniProt P22310, 29-534: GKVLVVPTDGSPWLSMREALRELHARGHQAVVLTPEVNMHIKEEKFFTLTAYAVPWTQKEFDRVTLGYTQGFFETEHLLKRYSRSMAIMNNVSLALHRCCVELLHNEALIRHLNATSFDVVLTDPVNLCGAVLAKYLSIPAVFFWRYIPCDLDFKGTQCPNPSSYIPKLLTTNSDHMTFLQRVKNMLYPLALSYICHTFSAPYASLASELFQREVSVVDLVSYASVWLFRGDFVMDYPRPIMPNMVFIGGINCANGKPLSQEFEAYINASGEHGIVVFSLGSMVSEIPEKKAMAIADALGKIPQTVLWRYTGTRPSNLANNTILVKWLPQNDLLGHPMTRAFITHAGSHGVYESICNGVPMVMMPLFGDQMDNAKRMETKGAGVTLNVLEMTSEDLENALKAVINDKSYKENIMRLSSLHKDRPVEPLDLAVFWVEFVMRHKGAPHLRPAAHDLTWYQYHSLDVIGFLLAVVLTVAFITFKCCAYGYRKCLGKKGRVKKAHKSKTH
UniProt P22310, 4-534 P24T: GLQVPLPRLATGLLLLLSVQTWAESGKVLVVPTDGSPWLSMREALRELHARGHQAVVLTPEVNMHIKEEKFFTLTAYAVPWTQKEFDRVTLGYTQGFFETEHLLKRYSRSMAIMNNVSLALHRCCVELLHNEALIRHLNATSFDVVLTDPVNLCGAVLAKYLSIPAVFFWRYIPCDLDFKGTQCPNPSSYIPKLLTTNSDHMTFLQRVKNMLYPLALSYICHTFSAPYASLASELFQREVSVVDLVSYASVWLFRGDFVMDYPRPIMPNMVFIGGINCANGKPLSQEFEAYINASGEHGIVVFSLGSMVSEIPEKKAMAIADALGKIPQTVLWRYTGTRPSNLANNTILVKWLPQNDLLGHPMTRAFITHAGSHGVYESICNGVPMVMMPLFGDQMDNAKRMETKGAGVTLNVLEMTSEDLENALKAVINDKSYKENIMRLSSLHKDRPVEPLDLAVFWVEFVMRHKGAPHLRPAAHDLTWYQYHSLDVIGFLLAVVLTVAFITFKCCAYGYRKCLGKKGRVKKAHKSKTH
UniProt P22310, 29-534 L48V: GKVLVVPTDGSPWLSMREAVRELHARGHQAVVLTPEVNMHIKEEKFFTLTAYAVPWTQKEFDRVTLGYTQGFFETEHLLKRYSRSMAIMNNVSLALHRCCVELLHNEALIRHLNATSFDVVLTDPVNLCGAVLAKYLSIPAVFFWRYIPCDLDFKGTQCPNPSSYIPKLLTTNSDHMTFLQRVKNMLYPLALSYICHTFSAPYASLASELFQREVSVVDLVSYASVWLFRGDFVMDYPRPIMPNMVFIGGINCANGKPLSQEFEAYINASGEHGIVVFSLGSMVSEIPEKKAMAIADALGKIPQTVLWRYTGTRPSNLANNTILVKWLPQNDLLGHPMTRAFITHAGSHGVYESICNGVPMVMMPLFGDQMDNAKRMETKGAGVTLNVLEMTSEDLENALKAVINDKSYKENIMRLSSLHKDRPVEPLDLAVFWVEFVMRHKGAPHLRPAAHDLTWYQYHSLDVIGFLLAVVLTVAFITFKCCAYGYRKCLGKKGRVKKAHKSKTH
UniProt P36537, 24-528: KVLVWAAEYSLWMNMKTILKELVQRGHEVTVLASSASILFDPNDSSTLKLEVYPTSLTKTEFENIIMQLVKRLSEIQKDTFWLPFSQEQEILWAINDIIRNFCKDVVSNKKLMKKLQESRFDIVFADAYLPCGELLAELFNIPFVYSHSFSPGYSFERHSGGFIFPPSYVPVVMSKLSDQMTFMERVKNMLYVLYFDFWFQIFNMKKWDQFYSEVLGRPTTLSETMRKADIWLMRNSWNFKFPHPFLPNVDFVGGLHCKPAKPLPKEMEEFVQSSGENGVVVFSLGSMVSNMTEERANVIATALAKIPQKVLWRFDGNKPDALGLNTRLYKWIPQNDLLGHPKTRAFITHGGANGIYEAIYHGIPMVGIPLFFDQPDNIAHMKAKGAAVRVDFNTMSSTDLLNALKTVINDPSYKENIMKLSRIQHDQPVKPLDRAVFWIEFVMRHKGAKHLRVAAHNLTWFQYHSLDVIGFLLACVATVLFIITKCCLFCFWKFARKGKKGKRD
UniProt P36537, 24-528 D67Y: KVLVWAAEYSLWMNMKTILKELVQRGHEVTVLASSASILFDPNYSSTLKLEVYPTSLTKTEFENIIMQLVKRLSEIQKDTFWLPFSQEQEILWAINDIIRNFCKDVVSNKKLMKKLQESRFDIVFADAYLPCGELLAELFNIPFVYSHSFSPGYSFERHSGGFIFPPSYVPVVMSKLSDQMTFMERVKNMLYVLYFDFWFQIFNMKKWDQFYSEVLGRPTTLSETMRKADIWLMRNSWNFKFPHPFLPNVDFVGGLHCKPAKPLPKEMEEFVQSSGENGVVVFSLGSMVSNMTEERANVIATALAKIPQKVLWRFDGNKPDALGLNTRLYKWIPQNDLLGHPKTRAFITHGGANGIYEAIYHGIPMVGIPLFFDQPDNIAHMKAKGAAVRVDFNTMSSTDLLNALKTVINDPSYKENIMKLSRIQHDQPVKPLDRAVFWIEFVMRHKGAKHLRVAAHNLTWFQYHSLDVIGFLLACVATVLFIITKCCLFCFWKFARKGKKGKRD

Cc1cc2c(s1)Nc1ccccc1N=C2N1CCN(C)CC1 [OLZ, Olanzapine]
Km at 2 h ([1]; OLZ-4′-N-glucuronide formation): 810 ± 135 µM
Km at 2 h [1, 9]: 156 ± 17 µM
Km at 2 h [1, 10]: 206 ± 37 µM
glucuronidation activity against OLZ in UGT screening [2]: detectable levels of activity
difference in Vmax/KM versus wild-type UGT1A4^24Pro/48Leu ([3]; OLZ-10-N-glucuronide isomer 2 or OLZ-4′-N-glucuronide): no difference was observed
Km at 2 h [3, 9]: 584 ± 67 µM
Km at 2 h [3, 10]: 152 ± 23 µM
difference in Vmax/KM versus either of the other two UGT1A4 isoforms ([4]; OLZ-4′-N-glucuronide formation): no significant difference
Km at 2 h [4, 9]: 69 µM
Km at 2 h [4, 10]: 110 ± 14 µM
Km at 2 h ([5]; OLZ-4′-N-glucuronide formation): 457 ± 11 µM
Km at 2 h [5, 9]: 564 ± 15 µM
Km at 2 h [5, 10]: 818 ± 23 µM
glucuronidation activity against OLZ in UGT screening [6]: detectable levels of activity
glucuronidation activity ([7]; OLZ-10-N-glucuronide isomer 1 formation, UGT2B10^67Tyr): no activity detected
glucuronidation activity against OLZ ([7]; UGT2B10^67Tyr variant): no glucuronidation activity was observed
10-N-glucuronide as share of urinary OLZ glucuronides [8]: ~67%
OLZ glucuronides as share of all urinary OLZ metabolites [8]: ~61%
unchanged OLZ as share of total urinary OLZ [8]: ~18%

From US20110223597A1 (priority 2010, published 2011)
